From patent US20220304953A1, “PHARMACEUTICAL DOSAGE FORM COMPRISING METFORMIN AND CALCIUM CITRATE” (DSM IP ASSETS B.V., priority 2019, published 2022) come the findings set out here.

Where two headings read alike, the source gives them in different places.

For this data set the following is noted: 37° C., 24 h; for Ca2+ ions: single determination.

As for anhydrous calcium citrate, the “Ca2+ ions, average” value (SGF (pH=1.1)) amounted to 2.7 mg/mL; the “Ca2+ ions, average” value (SIF (pH=6.8)) was 0.460 mg/mL; the “Ca2+ ions, average” value (water) was determined as 0.2000 mg/mL. The “Ca2+ ions” value by setting is: (SGF (pH=1.1)) 2.7 mg/mL; (SIF (pH=6.8)) 0.460 mg/mL; (water) 0.2000 mg/mL.
